Measured values from patent publication US20080138437A1, “Antitumor Agent” (priority 2004, published 2008).
Like-named read-outs stand apart in the source and are kept apart here.

Tested on: C57BL/6 male mouse
Details: 14 days observation; for deaths versus administered animals: one-time
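Note: mice given a single dose and followed for 14 days, with deaths tallied, LD50 derived from the doses given and the resulting death counts.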

Interferon-β
deaths versus administered animals (600 mg/kg intravascular): 0/6
deaths versus administered animals (800 mg/kg intravascular): 1/7
deaths versus administered animals (1000 mg/kg intravascular): 2/6
deaths versus administered animals (1200 mg/kg intravascular): 4/7
deaths versus administered animals (1500 mg/kg intravascular): 5/8
deaths versus administered animals (1700 mg/kg intravascular): 7/7
LD50 (intravascular, one-time administration): 1222 mg/kg
